These results are taken from ChEMBL document CHEMBL1139745, “Synthesis and biological study of 4-aminopyrimidine-5-carboxaldehyde oximes as antiproliferative VEGFR-2 inhibitors” (Bioorg Med Chem Lett, 2006).

In general, IC50 refers to the concentration at which inhibition is half-maximal.

Holding throughout (type): functional, cell-based
What all share (details): Homo sapiens

One experiment relates to A-375. In words: Antiproliferative activity against A375 cells.
Another experiment deals with HeLa. Nature of the experiment: Antiproliferative activity against HeLa cells.
In a further experiment the test system is HCT-116. In words: Antiproliferative activity against HCT116 cells.

The structures appear in SMILES notation.

As for `Cc1cc2c(F)c(Oc3ncnc(N)c3/C=N/OCCN(C)C)ccc2[nH]1`, the half-inhibitory concentration (IC50) was 501 nM with A-375, 3230 nM in the experiment on HeLa and 4250 nM in the experiment on HCT-116.
In the case of `C#CCO/N=C/c1c(N)ncnc1Oc1ccc2[nH]c(C)cc2c1F`, the half-maximal inhibitory concentration (IC50) in the experiment with HeLa and in the experiment on HCT-116 was 28 nM each time.
Take `Cc1cc2c(F)c(Oc3ncnc(N)c3/C=N/OCCN3CCOCC3)ccc2[nH]1`: the IC50 is 339 nM in the experiment with A-375, 699 nM in the experiment with HeLa and 1160 nM in the experiment on HCT-116.
The like results for `Cc1cc2c(F)c(Oc3ncnc(N)c3/C=N/OCCCN(C)C)ccc2[nH]1` were, in that order, 1600 nM, 4330 nM and 4290 nM.
